# Experimental data as given in PubChem BioAssay AID2029 (NMMLSC, 2009).
# Only a part is listed here, and it is no random draw. The source made the active and inactive calls.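 How the source made its calls: active means GFP response relative to DMSO above a set limit, near the screen mean plus 3 SD (cut at about 150% in these data); inconclusive means Fewer than 70 cells measured for a yeast strain; inactive means the rest.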
# Test: modulators of CIT2-GFP expression in yeast, primary screen, S. cerevisiae, GFP fusion, multiplex flow cytometry, MLPCN library (AID 2029);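 further: ratio of well median GFP fluorescence to mean of DMSO wells on the plate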
# Conditions: S. cerevisiae CIT2-GFP strain, 3 h, at 10 µM, active compounds read high, 100 means same as DMSO wells
row,SMILES,GFP response vs DMSO
1,CCC(=O)N(c1ccccc1)C1(COC)CCN(CCc2cccs2)CC1,inactive: 96.8%
2,CCC(=O)N(c1ccccc1)C1(COC)CCN(CCn2nnn(CC)c2=O)CC1,inactive: 95.7%
